# Earlier results in patent US10814115B2, “Microneedle devices and uses thereof” (MASSACHUSETTS INSTITUTE OF TECHNOLOGY, priority 2011, dated 2020).
# Conditions: cell wraps over r4-r6: Onset of hypoglycemia, can treat with glucose; cited from earlier work
substance,measurement,value
insulin aspart,Known Toxic Levels (in words),Onset of
